Measured values taken from patent US20210094998A1.

Amino acid sequences for entries named in this document (tags omitted). A change or cut given only in a name is not applied to a line headed by its entry.
UniProt P50391: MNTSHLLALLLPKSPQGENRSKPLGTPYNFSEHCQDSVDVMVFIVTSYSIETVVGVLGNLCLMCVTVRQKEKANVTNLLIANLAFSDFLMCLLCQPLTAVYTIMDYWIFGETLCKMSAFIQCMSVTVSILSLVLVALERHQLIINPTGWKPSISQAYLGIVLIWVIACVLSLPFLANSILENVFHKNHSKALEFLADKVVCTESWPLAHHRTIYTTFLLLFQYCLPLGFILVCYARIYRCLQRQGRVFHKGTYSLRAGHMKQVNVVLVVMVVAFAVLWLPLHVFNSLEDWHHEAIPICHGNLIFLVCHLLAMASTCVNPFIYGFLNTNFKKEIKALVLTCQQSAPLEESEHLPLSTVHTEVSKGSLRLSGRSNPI

Target: human Y4 receptor (human) (UniProt P50391)
Assay: cell-based or functional assay

EC50, cAMP assay (LANCE) on receptor-expressing cells: 137 nM
Substance: PYY3-36 (peptide)
